From ChEMBL document CHEMBL3045895 (Med Chem Res, 2012) come the findings set out here.

The experiment is described as follows: Selectivity ratio of IC50 for beta-glucuronidase (unknown origin) to IC50 for jack bean urease.

On to `Cc1cc(C)n(CN(Cn2nc(C)cc2C)C2CCCCC2)n1`, for which the Ratio IC50 was 10.
